Compound activity: PubChem, National Center for Advancing Translational Sciences (NCATS)
A selection: hits, their analogues and other compounds. The true share with any hit is near 0.78%.
miR-21 reporter – miR-21 reporter, rising signal | HeLa miR-21 FLuc reporter, luciferase, 48 h | Potency, µM (highest dose often 38.3 µM), for inactives: at the top dose reporter change, positive = more light | 340,000 tested, under 10 active | AID 2288; active = well fitted rising curve with a large enough effect; inconclusive = small, poorly fitted or top-dose-only effect; inactive = no such curve, though single readings can be large or run the other way;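 further: % of control where 0% means no effect; miR-21 action dims this reporter so a rising signal means less miR-21 action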
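Luminescence from a firefly luciferase reporter carrying a miR-21 binding site downstream, stably expressed under a CMV promoter in HeLa cells that make miR-21 endogenously, reports miRNA modulation after 48 h compound exposure up to approximately 40uM final.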
PINK1 modulator – changes PINK1 expression; Potency, µM (titrated, usually from 76.6 µM), for inactives: at the top dose activation (PINK1 increase), usual class: activators; AID 624263; PINK1 immunofluorescence, high-content cytometry, 24 h; actives 0.2% (n = 410,000); active means well fitted activation curve with a large enough effect; inconclusive means small, poorly fitted or top-dose-only effect; cell line not stated here; further: potency means the concentration at half of the fitted maximal effect; % of control where 0% means no effect; nearly all actives have a fitted effect of over 65% in size
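Stable cell line treated 24 h with compounds at 5 concentrations (CCCP controls), then fixed and immunostained for PINK1 plus nuclear and cell stains; PINK1 immunofluorescence quantified by laser-scanning microplate cytometry.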
RXFP1 antagonist – RXFP1 (human) relaxin receptor antagonism; activity change, negative = inhibition, % at 57.5 µM; actives 0.59% (n = 350,000); HEK293-RXFP1, relaxin-stimulated cAMP HTRF, 30 min; active compounds read low;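 active means activity change of -60% or lower, but not beyond a set lower limit; inconclusive means change between -60% and -40%, or beyond the set limit; inactive means change above -40%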; further: on the % scale 0 is the no-effect control and ±100 the full control effect
IL2 activator – activators of IL-2. IL-2 activation reporter assay, cell-based qHTS; stimulated with anti-CD3/CD4/CD28 beads; in transgenic mouse T cells. activation, % (series mostly up to about 46 µM). actives 0.065% (n = 360,000). AID 652025; in the data active means activation above about 50%; inconclusive means mostly about 30% to 49%; further: 0% is about no effect
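Using fluorescent plate cytometry, EGFP and DsRed are detected in transgenic mouse T cells stimulated 18 h at 37 degrees C with antibody-coated beads after 60 min compound pretreatment.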
RXFP1 ag – activates the human relaxin receptor RXFP1. AID 2676. Q9HBX9. Potency, µM (titrated, usually from 57.5 µM), for the others: at the highest dose activation, actives largely listed as activators. actives 0.3% (n = 370,000). HEK293T-RXFP1 cAMP TR-FRET, 30 min; response scale: percent of porcine relaxin response, buffer zero; further: potency means the concentration at half of the fitted maximal effect; on the % scale 0 is the no-effect control and ±100 the full control effect; nearly all actives have a fitted effect of over 60% in size
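HEK293T cells stably expressing RXFP1 were pretreated with the PDE4 inhibitor Ro 20174, exposed to compounds for 30 min at 37C, lysed, and cAMP was read by TR-FRET. Data normalized to buffer (basal) and 29 nM porcine relaxin (100%).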
TCR activator – activators of T cell receptors | primary human leukocytes, anti-CD3, IL-2 HTRF, 48 h | Potency, µM (highest dose often 9.22 µM), without a hit: at the top dose activation of IL-2 secretion, most hits filed as activators | 330,000 tested, under 10 active; further: % of control where 0% means no effect
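Primary human leukocytes receive a-CD3 beads and test compound and are incubated 48 hr. Secreted IL-2 is then assayed by HTRF, measuring 665nm acceptor emission after 320nm excitation of the europium donor.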
An asterisk follows results filed as active; ? = inconclusive; / = no result given; [ ] = another dose, or the depositor's remark. Unless noted, the call rests on the fitted dose curve; in most records, active means well fitted curve in the direction sought with a large enough effect; inconclusive means small, poorly fitted or top-dose-only effect, or another doubt; inactive means no such curve, though single readings can be large; an effect the other way counts as inactive or inconclusive.

SMILES	miR-21 reporter	PINK1 modulator	RXFP1 antagonist	IL2 activator	RXFP1 ag	TCR activator
CC(OC(=O)c1ccc(O)cc1)C(=O)Nc1nc(-c2ccccc2)cs1 (stereo not given)	/	0%	-85*	8	0%	13%
CC(Oc1ccccc1)C(=O)Nc1nc(-c2ccncc2)cs1 (stereo not given)	/	2%	-3	1	-1%	-1%
COC(=O)C1CCN(Cc2ccc3c(c2)CN(C(=O)c2cc4ccccc4n2C)CCO3)CC1	/	0%	/	/	/	/
c1ccc(-c2cn(-c3ccccc3)c3[n+]2CCS3)cc1	22%	-1%	9	-1	3%	12%
CC(C)(C)c1ccc(-c2cn(-c3ccc(Br)cc3)c3[n+]2CCCS3)cc1	?	35µM*	-13	-3	0%	3%
OC1(c2ccc3c(c2)CN(Cc2nccs2)CCO3)CCN(c2ccccc2F)CC1	/	0%	/	/	/	/
Cc1ccc(C)n1-c1ccc(C(=O)NN)cc1	-13%	3%	-71*	1	-1%	6%[46.1 µM]
CCCC(C(=O)O)n1c(O)c(C=C2N=c3ccccc3=N2)sc1=S (stereo not given)	0%	4%	-61*	0	-14%	0%
O=C(O)CCCn1c(O)c(C=C2N=c3ccccc3=N2)sc1=S	-5%	4%	-17	-1	0%	1%
O=C(Cn1nc(CNc2ccc(Br)cc2)[n+]2c1CCCCC2)c1ccc([N+](=O)[O-])cc1	18%	40µM*	-5	0	0%	-4%
COc1ccccc1C1CCCN1Cc1nc(-c2ccc(C)s2)oc1C (stereo not given)	22%	1%	-65*	0	0%	-5%
COc1ccccc1C1CCCN1Cc1nc(-c2cc3c(cc2Cl)OCO3)oc1C (stereo not given)	3%	3%	-4	0	0%	0%
CCN1CCN(C(=O)c2sc3ncnc(NCC4CCCO4)c3c2C)CC1 (stereo not given)	/	0%	/	/	/	/
COc1cc(C2C(C#N)=C(N)Oc3c2ccc2ccccc32)ccc1OCC(=O)Nc1cccc(C)c1 (stereo not given)	1%	1%	-78*	-1	-2%	-1%[46.1 µM]
O=C1NC(=S)N/C1=C\c1ccccc1OCc1ccc(C(=O)O)cc1	-8%	-2%	-2	0	0%	9%
O=C(O)c1ccc(COc2ccccc2C=C2C(=O)c3ccccc3C2=O)cc1	-20%	0%	-60*	0	-1%	4%[46.1 µM]
CN(C)S(=O)(=O)c1ccc(-c2csc(N/N=C/c3ccco3)n2)cc1	?	8%	-72*	1	0%	1%
Cc1ccc(-c2csc(N/N=C/c3ccco3)n2)cc1	-44%	4%[38.3 µM]	-37	4	-1%	-64%
Cc1sc(N/N=C/c2ccco2)nc1-c1ccccc1	-25%	4%	-89*	-1	0%	-1%[46.1 µM]
COc1ccc(OC)c(C(=O)N2CCc3c(cnc(C)c3CNS(=O)(=O)N(C)C)C2)c1	/	-1%	/	/	/	/
CC(C)CC[n+]1ccccc1/C=C/c1ccc(N(C)C)cc1	?	32µM*	9	20	7%	-4%
COc1ccc(C(=O)/C(=C\c2ccco2)N2C=CC=CC2=C(C#N)C#N)cc1	?	-2%	-75*	0	2%	1%
COc1ccc(/C=C(/C(=O)c2cccs2)N2C=CC=CC2=C(C#N)C#N)cc1	?	0%	-2	-1	0%	3%[46.1 µM]
N#CC(C#N)=C1C=CC=CN1/C(=C\c1ccco1)C(=O)c1ccc(Br)cc1	?	-1%	?	-1	-1%	2%[46.1 µM]
N#CC(C#N)=C1C=CC=CN1/C(=C\c1ccco1)C(=O)c1ccccc1	?	-1%	-104*	-1	-2%	2%[46.1 µM]

Whole records, looked up by structure. Order of values: miR-21 reporter, PINK1 modulator, RXFP1 antagonist, IL2 activator, RXFP1 ag, TCR activator
Shown for CC(Oc1ccccc1)C(=O)Nc1nc(-c2ccncc2)cs1 (stereo not given) : /, 2%, -3, 1, -1%, -1%
Shown for O=C(Cn1nc(CNc2ccc(Br)cc2)[n+]2c1CCCCC2)c1ccc([N+](=O)[O-])cc1 : 18%, 40µM*, -5, 0, 0%, -4%
Shown for OC1(c2ccc3c(c2)CN(Cc2nccs2)CCO3)CCN(c2ccccc2F)CC1 : /, 0%, /, /, /, /

An excerpt from above in order of the IL2 activator value, largest number first.
molecule	miR-21 reporter	PINK1 modulator	RXFP1 antagonist	IL2 activator	TCR activator
CC(C)CC[n+]1ccccc1/C=C/c1ccc(N(C)C)cc1	?	32µM*	9	20	-4%
CC(OC(=O)c1ccc(O)cc1)C(=O)Nc1nc(-c2ccccc2)cs1 (stereo not given)	/	0%	-85*	8	13%
COc1cc(C2C(C#N)=C(N)Oc3c2ccc2ccccc32)ccc1OCC(=O)Nc1cccc(C)c1 (stereo not given)	1%	1%	-78*	-1	-1%[46.1 µM]

Additional compounds
SMILES	miR-21 reporter	PINK1 modulator	RXFP1 antagonist	IL2 activator	RXFP1 ag	TCR activator
Nc1ccn([C@@H]2O[C@H](CO)[C@@H](O)C2(F)F)c(=O)n1	/	/	-8	/	/	/
COc1ccc2c(c1)OC(C)CN(CCC(=O)NCC1OCCc3ccccc31)C2 (stereo not given)	/	1%	/	/	/	/
CCOC(=O)c1c(C)[nH]c(C(=O)COC(=O)CCSc2ccccc2)c1C	-65%	1%	-15	-1	0%	2%[46.1 µM]
CC(=O)c1c(C)[nH]c(C(=O)COC(=O)CCSc2ccccc2)c1C	-15%	-1%	-64*	-1	0%	3%[46.1 µM]
COC(=O)[C@@H]1CCCN1C(=O)c1cc(NC(=O)c2ccccc2)cc2ncn(C3CCCC3)c12	/	0%	/	/	/	/
O=C(Nc1ccccc1)Nc1nnc(CSCc2ccccc2Cl)s1	-6%	?	-9	1	0%	-4%[46.1 µM]
O=C(Nc1ccc(Cl)cc1)Nc1nnc(CSCc2ccccc2Cl)s1	5%	40µM*	-1	0	-3%	-6%[46.1 µM]
O=C(Nc1ccc(Cl)c(Cl)c1)Nc1nnc(CSc2ccccc2)s1	-4%	10µM*	-12	3	-3%	-8%[46.1 µM]
Cc1cnc(NS(=O)(=O)c2ccc(N)cc2)nc1	/	/	15	/	/	/
CC1(C)CC(NC(=O)c2sc3cc(Cl)ccc3c2Cl)CC(C)(C)N1	-4%	-2%	-60*	1	0%	-5%
COc1cc(C)c(CN2CCC3(CCC(CNC(=O)c4ccnn4C)O3)CC2)cc1C (stereo not given)	/	0%	/	/	/	/
O=C(Nc1cccc(Cl)c1Cl)c1ccc(-c2ccccc2)cc1	-32%	11µM*	/	-2	10%	-8%
CC(C)c1ccc(CN2CCC3(CCC(CNC(=O)c4ccn(C)n4)O3)CC2)cc1 (stereo not given)	/	0%	/	/	/	/
CCN(CC)S(=O)(=O)c1ccc(C(=O)NCc2n[nH]c(=S)n2-c2ccc(Cl)c(Cl)c2)cc1	-6%	-2%	-64*	-1	1%	-7%
Cc1cnc(SCCN2CCOCC2)nc1C1CCCN(C(=O)c2cccc3c(C)c(C)[nH]c23)C1 (stereo not given)	/	2%	/	/	/	/
O=C(O)c1c(O)c(-c2ccccc2)nc2ccccc12	/	/	-17	/	/	/
Cc1ccccc1OCCCCn1c(CCNC(=O)C(C)(C)C)nc2ccccc21	14%	-1%	-63*	/	-1%	/
Cc1cccc(OCCCn2c(CCNC(=O)C(C)(C)C)nc3ccccc32)c1	15%	3%	-4	/	-2%	/
CC(C)(C)C(=O)NCCc1nc2ccccc2n1CCCCOc1ccc(Cl)cc1	?	0%	-85*	/	-1%	/
Cc1ccc(C)c(CN2CCc3nnc(CNC(=O)c4cc(C)oc4C)n3CC2)c1	/	1%	/	/	/	/
